Source: US6372493B1, “Hormone-secreting cells maintained in long-term culture” (Pacific Biomedical Research, Inc. [Cell Mart, Inc.], priority 1991, dated 2002)

Experiments:
[1] = test system: Ovarian follicular cells, lines 100B-OR-5A, 100B5-OR-B, 100B5-OR-D; assay: 8-Br-cAMP / FSH stimulation of progesterone secretion by cultured follicular cells; assay type: cell-based, human; settings: FSH 1IU/ml, 48 hours
From the text: (§1) Cells in SC-2 were propagated and sub-cultured as above more than 20 times. Medium was collected from each sub-culture at regular intervals and assayed for the presence of secreted estradiol (E2), progesterone, luteinizing hormone (LH), follicle stimulating hormone (FSH), thyroid stimulating hormone (TSH), prolactin, testosterone and the β-chain of human chorionic gonadotrophin (B-hCG). Quantitative radioimmune assays (RIA) were employed as described in Radioassay Systems in Clinical Endocrinology, 1981, Ed. G. E. Abraham, {Basel: Marcel Dekker}, pp. 475-529. Progesterone, testosterone, estradiol, prolactin, thyroid stimulating hormone and luteinizing hormone were assayed by the Coat-a-Count procedure (Diagnostic Products Corp., Los Angeles). Follicle-stimulating hormone and B-hCG were assayed by the SERONO MATAclone procedure (Serono, Italy).
(§2) Ovarian follicular cells, lines 100B-OR-5A, 100B5-OR-B, and 100B5-OR-D, were established in culture as described in Example 1 and maintained and sub-cultured as described in Example 2. From these lines were created sub-cultures designated 1, 2, and 3 respectively, which were employed in the stimulation protocol described below.
(b) cAMP stimulation: Cultures were exposed to 1 mM 8-Br-cAMP (Sigma) or to FSH (1IU/ml; Metrodin [urofollitropin], Lot No. 07321070, Serono, Italy). […] FSH stimulation for 48 hours led to an increase in progesterone content of 6.5 to 7.7 fold.

[2] = test system: Ovarian follicular cells, lines 100B-OR-5A, 100B5-OR-B, 100B5-OR-D; assay: hCG (gonadotrophin) stimulation of steroid secretion by cultured follicular cells, RIA; assay type: cell-based, human; settings: for E2 + hCG / Prog + hCG: hCG 750 ng/ml in DM-1
From the text: as §1, §2
(a) Gonadotrophin stimulation: Human chorionic gonadotrophin (hCG; Sigma) was added to the culture medium (DM-1) in the amount of 750 ng/ml. After 70 to 76 hours, progesterone content of the medium was increased approximately two-fold over control. Estradiol synthesis was also stimulated by hCG, leading to an increased estradiol content of 0.4 to 0.5 fold over control within 30 hours.

Row | Substance | Prog ([1]; culture 1) | Prog ([1]; culture 2) | Prog ([1]; culture 3) | E2 + hCG ([2]; culture 1) | Prog + hCG ([2]; culture 1) | E2 + hCG ([2]; culture 2) | Prog + hCG ([2]; culture 2) | progesterone content of the medium, increase over control ([2]; hCG 750 ng/ml, after 70 to 76 hours)
1 | FSH: FSH (1IU/ml; Metrodin [urofollitropin], Lot No. 07321070, Serono, Italy) | 17.2 ng/10^6 cells | 10.8 ng/10^6 cells | 18.9 ng/10^6 cells | – | – | – | – | –
2 | hCG: Human chorionic gonadotrophin (hCG; Sigma) | – | – | – | 43 pg/mL | 12.1 ng/mL | 76 pg/mL | 19.8 ng/mL | approximately two-fold
